This note sets out measurements from PMC4472506 (Nature chemical biology, 2015).

By UniProt entry, the sequences of proteins in these tests, tags left out. Residues count along the entry.
UniProt P11362, 22-822: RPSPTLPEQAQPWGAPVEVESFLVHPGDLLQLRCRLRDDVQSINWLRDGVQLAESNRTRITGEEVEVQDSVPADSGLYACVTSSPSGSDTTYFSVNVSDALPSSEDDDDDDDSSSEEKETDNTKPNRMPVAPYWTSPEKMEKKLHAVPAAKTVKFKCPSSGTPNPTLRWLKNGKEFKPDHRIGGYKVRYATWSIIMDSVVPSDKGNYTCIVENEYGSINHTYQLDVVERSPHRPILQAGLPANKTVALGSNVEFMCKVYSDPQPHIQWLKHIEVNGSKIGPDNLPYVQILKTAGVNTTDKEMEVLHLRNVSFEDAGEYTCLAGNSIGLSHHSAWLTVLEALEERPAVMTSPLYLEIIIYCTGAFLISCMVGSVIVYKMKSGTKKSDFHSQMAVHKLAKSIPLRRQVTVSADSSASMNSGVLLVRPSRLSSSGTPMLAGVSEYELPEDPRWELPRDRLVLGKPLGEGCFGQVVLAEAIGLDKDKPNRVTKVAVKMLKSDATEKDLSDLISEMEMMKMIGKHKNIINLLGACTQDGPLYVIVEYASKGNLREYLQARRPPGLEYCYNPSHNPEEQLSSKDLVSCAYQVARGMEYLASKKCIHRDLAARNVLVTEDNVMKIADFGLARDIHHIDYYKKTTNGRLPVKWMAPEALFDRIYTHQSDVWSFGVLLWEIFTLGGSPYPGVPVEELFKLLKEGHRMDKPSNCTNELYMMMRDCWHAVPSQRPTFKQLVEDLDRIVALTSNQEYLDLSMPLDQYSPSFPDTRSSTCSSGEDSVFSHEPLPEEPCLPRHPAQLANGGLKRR

For the assay, the target named is FGFR1 (Homo sapiens, UniProt P11362). Description: Biochemical residence time using fluorescence competition. The format is binding. The settings on record: read-out: FGFR1 residence time τ.

Take `CCN1CCN(c2ccc(Nc3cc(N(C)C(=O)Nc4c(Cl)c(OC)cc(OC)c4Cl)ncn3)cc2)CC1` [BGJ398]: the residence time was 114 ± 24 min.
